Target: Heat shock protein HSP 90-alpha (Homo sapiens, UniProt P07900)
Experiment: Inhibition of FITC-geldanamycin binding to N-terminal domain of recombinant full-length HSP90alpha (unknown origin) after 16 hrs by fluorescence polarization assay

## O=C(NCc1ccccc1)c1cc(Cl)c(O)cc1O
  IC50: > 1000 nM

— ChEMBL document CHEMBL4251579, “Design, synthesis, and biological evaluation of a series of resorcinol-based N-benzyl benzamide derivatives as potent Hsp90 inhibitors” (Eur J Med Chem, 2018)
